Experimental findings from US20130295185A1, “COMPOUNDS AND METHODS FOR INDUCING APOPTOSIS IN CANCER CELLS USING A BH3 ALPHA-HELICAL MIMETIC” (H. Lee Moffitt Cancer Center and Research Institute, Inc., priority 2011, published 2013) are described below.

By UniProt entry, the sequences of proteins in these tests, tags left out.
UniProt Q07817, whole entry: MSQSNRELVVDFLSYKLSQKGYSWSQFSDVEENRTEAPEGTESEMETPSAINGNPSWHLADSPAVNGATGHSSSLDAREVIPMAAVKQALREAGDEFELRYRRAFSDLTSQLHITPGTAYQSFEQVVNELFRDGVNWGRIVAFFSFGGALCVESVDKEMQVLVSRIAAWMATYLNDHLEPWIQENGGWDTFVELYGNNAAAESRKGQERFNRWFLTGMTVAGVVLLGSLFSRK

Assay [1] deals with Bcl-XL/Bax and Bcl-XL/Bim (Homo sapiens, UniProt Q07817). The experiment in a line: Co-immunoprecipitation from A549 cells. The following applies: A549, serum-starved, 25 and 50 μM, 1 h; tested form: diammonium salt (as drawn, CO2NH4). The procedure: FIG. 4 is a series of images illustrating BH3-M6 inhibits the interaction between Bcl-XL, Bcl-2, and Mcl-1 with Bim, Bak or Bax in intact cells. (A) Co-immunoprecipitation from HEK293T cells. HEK293T cells were co-transfected with HA-Bcl-XL and Flag-BimEL for 18 h. Cells were exposed to 0, 25, 50, and 100 μM of BH3-M6 or 100 μM of TPC for 2 h at 37° C., lysed and subjected to immunoprecipitation with anti-FLAG-M2 beads. The resulting immune complexes, as well as total lysates, were analyzed by Western blotting with the indicated antibodies. (B) Co-immunoprecipitation from MDA-MB-468 cells expressing Bcl-XL-IRES-BimEL, Bcl-2-IRES-BimEL, and Mcl-1-IRES-BimEL. […] The resulting immune complexes were analyzed by Western blotting with Bim, Bcl-XL, Bcl-2, and Mcl-1 antibodies. […] The resulting immune complexes were analyzed by Western blotting with the indicated antibodies. […] The resulting immune complexes were analyzed by Western blotting with the antibodies indicated on the right. […]
Next the inventors determined whether BH3-M6 could disrupt these interactions of the corresponding endogenous proteins. […] Finally, a mechanism by which freed Bax is believed to induce apoptosis is through a conformational change, which can be detected by a specific antibody. […]

In assay [2] the test system is Mitochondria from A549 cells. The assay can be described thus: Cytochrome c release from isolated A549 mitochondria. The following applies: 50 μM, 60 min, 37° C.; tested form: diammonium salt (as drawn, CO2NH4). As for the experimental part: FIG. 5 is a series of images illustrating BH3-M6 induces apoptosis in a caspase-dependent manner. (A) BH3-M6 releases cytochrome c from mitochondria. Mitochondria from A549 cells were incubated at 37° C. with 0, 50 μM BH3-M6 or TPC for 60 min. Cytochrome c release was determined as described in Methods. B-D A549 cells were treated with the indicated BH3-M6 concentrations for up to 72 h and then processed for various assays as described in EXPERIMENTAL PROCEDURES. (B) BH3-M6 induces apoptosis after 48 h of exposure to BH3-M6, as shown by phase images of cells (left panel) or DAPI nuclear staining (right panel). The arrows point towards cells in the process of rounding. The images from phase and DAPI are from different experiments. […] (D) BH3-M6 decreases the viability of A549 cells in a dose-dependent manner as measured by MTT assay after 72 h treatment. […] Caspase-3/-7 activity was determined as described in EXPERIMENTAL PROCEDURES. […] Middle panel, PARP cleavage was measured by Western blotting. Lower panel, extent of apoptosis was measured by TUNEL assay.
Release of cytochrome c from isolated mitochondria was measured as described by Takahashi et al. (Takahashi, Y., Karbowski, M., Yamaguchi, H., Kazi, A., Wu, J., Sebti, S. M., Youle, R. J., and Wang, H. G. (2005) Mol Cell Biol 25, 9369-9382) Cell-free caspase-3/-7 activity and the extent of PARP cleavage was determined as described previously. […]

For `CC(C)Cc1cc(-c2ccc(-c3ccc(CCC(=O)O)cc3CC(C)C)cc2Cc2ccccc2)ccc1OCC(=O)O`, the “disruption of interaction of Bcl-XL/Bax and Bcl-XL/Bim” value in assay [1] is reported as “able to disrupt”. In addition, the “release of cytochrome c from isolated mitochondria” value in assay [2] is “triggered the release”.
